Values of other authors as cited in paper PMC12481580 (Journal of Medicinal Chemistry, 2025).

The chains behind the UniProt entries cited, without tags or fusion partners.
UniProt P30989, whole entry: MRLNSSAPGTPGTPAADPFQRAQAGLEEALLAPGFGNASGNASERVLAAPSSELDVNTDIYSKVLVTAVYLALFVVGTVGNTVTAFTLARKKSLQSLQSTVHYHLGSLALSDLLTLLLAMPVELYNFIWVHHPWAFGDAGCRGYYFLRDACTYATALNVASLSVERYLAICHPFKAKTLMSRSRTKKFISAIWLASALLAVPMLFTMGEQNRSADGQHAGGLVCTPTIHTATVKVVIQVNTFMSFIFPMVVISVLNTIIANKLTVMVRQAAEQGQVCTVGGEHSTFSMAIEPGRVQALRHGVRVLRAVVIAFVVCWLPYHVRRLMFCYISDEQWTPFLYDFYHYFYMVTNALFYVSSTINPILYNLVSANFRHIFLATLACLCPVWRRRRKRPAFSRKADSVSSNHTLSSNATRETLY

Biological target: NTS1R (Homo sapiens, UniProt P30989)
Conditions: read-out: IC50 (hNTS1R); ref Maes et al.; cited from earlier work

Compound: CC(C)C[C@H](NC(=O)[C@@H](NC(=O)[C@H](Cc1ccc(O)cc1)NC(=O)[C@@H]1CCCN1C(=O)[C@H](CCCNC(=N)N)NC(=O)[C@H](CCCNC(=N)N)NC(=O)CCCCNC(=O)c1ccccc1-c1c2ccc(=O)cc-2oc2cc(O)ccc12)C(C)(C)C)C(=O)O
- IC50: 75 nM
